Target: Ribosomal protein S6 kinase alpha-6 (Homo sapiens, UniProt Q9UK32)
Test: In Vitro Enzyme Activity Assay

By UniProt entry, the sequences of proteins in these tests, tags left out.
UniProt Q9UK32, whole entry: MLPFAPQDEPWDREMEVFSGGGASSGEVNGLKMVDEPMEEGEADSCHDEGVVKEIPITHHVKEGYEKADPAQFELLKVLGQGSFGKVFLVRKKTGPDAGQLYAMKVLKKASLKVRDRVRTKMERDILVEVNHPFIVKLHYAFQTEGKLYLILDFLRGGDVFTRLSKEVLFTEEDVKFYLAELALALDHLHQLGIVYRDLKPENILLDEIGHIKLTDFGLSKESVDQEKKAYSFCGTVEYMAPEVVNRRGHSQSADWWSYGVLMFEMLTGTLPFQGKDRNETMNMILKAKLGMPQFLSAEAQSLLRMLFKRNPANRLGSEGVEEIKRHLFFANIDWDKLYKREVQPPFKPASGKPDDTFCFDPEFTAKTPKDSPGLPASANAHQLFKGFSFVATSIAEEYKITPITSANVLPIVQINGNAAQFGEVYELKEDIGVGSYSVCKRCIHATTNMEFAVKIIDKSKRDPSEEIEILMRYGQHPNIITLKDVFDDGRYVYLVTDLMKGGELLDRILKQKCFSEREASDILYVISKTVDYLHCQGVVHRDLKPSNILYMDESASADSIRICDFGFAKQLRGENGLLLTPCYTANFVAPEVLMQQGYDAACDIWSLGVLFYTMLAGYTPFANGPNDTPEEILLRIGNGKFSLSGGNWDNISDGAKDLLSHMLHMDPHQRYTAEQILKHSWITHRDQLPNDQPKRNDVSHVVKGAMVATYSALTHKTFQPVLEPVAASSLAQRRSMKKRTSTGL

IC50: 131 nM
Structure (SMILES): Cc1cc(=O)n(C2CCNC2)c2nc(Nc3ccc4[nH]ncc4c3)ncc12 (stereo unspecified) [US20250388576, Compound 006]
